Apparent affinities of Ab-14 variants for a coronavirus HR2 peptide

Values reported by Li et al. 2023, doi:10.1038/s41467-023-39022-2 (FLAb copy).

Target: peptide PDVDLGDISGINAS, taken from heptad repeat 2 (HR2) of SARS-CoV-2 spike.

Each scFv is VH, a (GGGGS)3 linker, VL, as in the parent Ab-14, and differs from it in the CDRs of the heavy chain only.
VH: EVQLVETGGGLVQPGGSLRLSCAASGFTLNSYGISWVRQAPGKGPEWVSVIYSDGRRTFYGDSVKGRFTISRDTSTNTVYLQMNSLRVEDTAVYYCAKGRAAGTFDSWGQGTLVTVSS
VL: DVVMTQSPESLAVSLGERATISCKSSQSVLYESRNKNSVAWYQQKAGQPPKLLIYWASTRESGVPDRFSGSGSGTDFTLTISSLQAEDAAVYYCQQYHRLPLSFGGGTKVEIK

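These sequences belong to a second round, designed from the earlier measurements on random variants of the parent. Group labels follow the data file (Ctrl: baseline library sampled from a position-specific scoring matrix, with some repeated check sequences; GPLM: also part of the Gaussian process libraries; Gen: genetic algorithm; a sequence that several methods proposed may carry one label only). The assay is AlphaSeq: two haploid yeast populations carry antibody and antigen on their surface. Mating (16 h, 30 °C) was followed by selection of diploids and sequencing of their barcodes. Scores were corrected for input abundance and mapped to Kd with protein pairs of known affinity run in the same pool. The assay was run in six technical replicates.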

The whole VH of each variant is written out. Affinities are written as log10 Kd with Kd in nM; a lower number is a better binder. "nd" means that the variant was in the library but no mating with the target was seen in that replicate; the authors take this as a sign of poor binding, and no number exists.

{"VH": "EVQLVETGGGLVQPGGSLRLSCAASGATINSYGISWVRQAPGKGPEWVSVIYSDGRRTFYGDSVKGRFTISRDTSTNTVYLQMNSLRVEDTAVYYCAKGRAAGTFDWWGQGTLVTVSS", "group": "Ctrl", "log10 Kd (nM) by replicate": "nd nd nd nd nd nd", "empty controls": "0/18"}
{"VH": "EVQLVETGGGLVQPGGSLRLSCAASGFTLSSYGISWVRQAPGKGPEWVSVIYSDGRRTYYGDKVKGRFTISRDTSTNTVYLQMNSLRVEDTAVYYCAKGAAAGTADSWGQGTLVTVSS", "group": "Ctrl", "log10 Kd (nM) by replicate": "nd nd nd nd nd nd", "empty controls": "0/18"}
{"VH": "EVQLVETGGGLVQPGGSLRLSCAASGFMLNEYGISWVRQAPGKGPEWVSVIYSDGRRTFYHDSVKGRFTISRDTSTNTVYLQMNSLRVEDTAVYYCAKGRAAGTFDSWGQGTLVTVSS", "group": "Ctrl", "log10 Kd (nM) by replicate": "0.85 0.38 0.38 -0.13 0.14 0.32", "empty controls": "0/18"}
{"VH": "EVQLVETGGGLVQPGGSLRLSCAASGFTLNSYGISWVRQAPGKGPEWVSVDYSDGMRTFYGDSVKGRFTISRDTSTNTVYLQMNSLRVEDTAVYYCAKVRAAGTFDSWGQGTLVTVSS", "group": "Ctrl", "log10 Kd (nM) by replicate": "1.20 nd nd nd nd nd", "empty controls": "0/18"}
{"VH": "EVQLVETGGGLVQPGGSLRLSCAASGFTLNSYGISWVRQAPGKGPEWVSVIYSDGQRTFYGDSVKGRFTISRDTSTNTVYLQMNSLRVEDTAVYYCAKNRAAGTMDSWGQGTLVTVSS", "group": "Ctrl", "log10 Kd (nM) by replicate": "nd nd nd nd nd nd", "empty controls": "1/18 (3.00)"}
{"VH": "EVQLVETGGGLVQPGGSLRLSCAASGFTLNQYGISWVRQAPGKGPEWVSVIYSDGKRTFYGDSVKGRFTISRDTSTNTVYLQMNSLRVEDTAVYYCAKGRAAGTFDSWGQGTLVTVSS", "group": "Ctrl", "log10 Kd (nM) by replicate": "nd nd nd nd nd nd", "empty controls": "0/18"}
{"VH": "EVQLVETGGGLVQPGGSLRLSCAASGFTINSYGISWVRQAPGKGPEWVSVIYSDGRRTFYGDKVKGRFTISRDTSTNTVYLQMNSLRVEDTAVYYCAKGREAGTFDEWGQGTLVTVSS", "group": "Ctrl", "log10 Kd (nM) by replicate": "nd 0.74 nd 1.31 1.89 nd", "empty controls": "0/18"}
{"VH": "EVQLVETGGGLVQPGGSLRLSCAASGFTLNSYGISWVRQAPGKGPEWVSVIYSDGRRTFYADSVKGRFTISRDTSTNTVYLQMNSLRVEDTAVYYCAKGRAKGTFDSWGQGTLVTVSS", "group": "Ctrl", "log10 Kd (nM) by replicate": "nd nd nd nd nd nd", "empty controls": "0/18"}
{"VH": "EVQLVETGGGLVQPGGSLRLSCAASGFTLNSYGISWVRQAPGKGPEWVSVIYSDGRRTFYGDSVKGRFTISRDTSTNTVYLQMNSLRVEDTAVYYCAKGTAAGTFDNWGQGTLVTVSS", "group": "Ctrl", "log10 Kd (nM) by replicate": "1.39 1.74 0.84 0.57 0.78 2.07", "empty controls": "0/18"}
{"VH": "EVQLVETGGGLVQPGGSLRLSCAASGFTVNSYGISWVRQAPGKGPEWVSVIYSDGRRTAYGDSVKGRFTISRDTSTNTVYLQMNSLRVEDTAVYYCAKGKAAGVFDNWGQGTLVTVSS", "group": "Ctrl", "log10 Kd (nM) by replicate": "nd nd nd nd nd nd", "empty controls": "0/18"}
{"VH": "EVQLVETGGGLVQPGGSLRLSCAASGFTLNEYGISWVRQAPGKGPEWVSVIYSDGRRTFYGDSYKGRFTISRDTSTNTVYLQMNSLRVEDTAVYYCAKGRAAGTFPSWGQGTLVTVSS", "group": "Ctrl", "log10 Kd (nM) by replicate": "nd nd nd nd nd nd", "empty controls": "0/18"}
{"VH": "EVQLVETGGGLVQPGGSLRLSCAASGFTLNSYGISWVRQAPGKGPEWVSVIYSDGRRTFYIDSVKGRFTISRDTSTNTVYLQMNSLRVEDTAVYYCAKGRIADTFDSWGQGTLVTVSS", "group": "Ctrl", "log10 Kd (nM) by replicate": "nd nd nd nd nd nd", "empty controls": "0/18"}
{"VH": "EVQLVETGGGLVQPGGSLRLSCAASGFTLNSYRISWVRQAPGKGPEWVSVIYSDGQRTFYQDDVKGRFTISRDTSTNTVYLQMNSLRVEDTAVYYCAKSWEAGTFDSWGQGTLVTVSS", "group": "Ctrl", "log10 Kd (nM) by replicate": "nd nd nd nd nd nd", "empty controls": "0/18"}
{"VH": "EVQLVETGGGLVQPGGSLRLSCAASGFSLNSYGISWVRQAPGKGPEWVSVIYSDGRRTFYGDSVKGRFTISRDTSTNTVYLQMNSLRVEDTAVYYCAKGRQAGTFDSWGQGTLVTVSS", "group": "Ctrl+GPLM_Gen", "log10 Kd (nM) by replicate": "2.56 2.35 1.77 0.83 1.28 1.90; nd -0.45 0.18 0.74 nd 0.26", "empty controls": "0/36"}
{"VH": "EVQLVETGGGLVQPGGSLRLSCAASGFTLNSYSISWVRQAPGKGPEWVSVIYADGRRTFYGDDVKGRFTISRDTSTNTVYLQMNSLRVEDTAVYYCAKGRAAGTFLSWGQGTLVTVSS", "group": "Ctrl", "log10 Kd (nM) by replicate": "nd nd nd nd nd nd", "empty controls": "0/18"}
{"VH": "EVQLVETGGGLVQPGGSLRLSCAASGFTLNSYGISWVRQAPGKGPEWVSVIYSDGRRTFYGDSVKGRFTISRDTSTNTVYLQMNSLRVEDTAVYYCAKDRAAGTFDQWGQGTLVTVSS", "group": "Ctrl", "log10 Kd (nM) by replicate": "0.00 0.07 -0.08 0.25 2.24 0.33", "empty controls": "0/18"}
{"VH": "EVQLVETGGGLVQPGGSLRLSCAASGQTLNSYGISWVRQAPGKGPEWVSVIYSDGRRTFYGDSVKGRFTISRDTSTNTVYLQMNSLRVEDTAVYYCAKGLAAGTFDSWGQGTLVTVSS", "group": "Ctrl", "log10 Kd (nM) by replicate": "nd nd nd nd 2.17 nd", "empty controls": "0/18"}
{"VH": "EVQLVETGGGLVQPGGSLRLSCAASGFTLNEYGISWVRQAPGKGPEWVSVIYSDGRRTFYGDSVKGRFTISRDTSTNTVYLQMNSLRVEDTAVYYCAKGQAALTFDSWGQGTLVTVSS", "group": "Ctrl", "log10 Kd (nM) by replicate": "nd nd nd nd nd nd", "empty controls": "0/18"}
{"VH": "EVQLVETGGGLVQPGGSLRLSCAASGFTLNSYGISWVRQAPGKGPEWVSVIYSDGLRTFYGDSVKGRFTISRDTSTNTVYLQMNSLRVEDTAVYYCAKGAACGTFDSWGQGTLVTVSS", "group": "Ctrl", "log10 Kd (nM) by replicate": "nd nd nd nd nd nd", "empty controls": "0/18"}
{"VH": "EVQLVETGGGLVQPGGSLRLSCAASQFTLNEYGISWVRQAPGKGPEWVSVIYSDFRRTFYADSVKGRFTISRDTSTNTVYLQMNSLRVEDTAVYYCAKGRAAGTFDSWGQGTLVTVSS", "group": "Ctrl", "log10 Kd (nM) by replicate": "nd nd nd nd nd nd", "empty controls": "0/18"}
{"VH": "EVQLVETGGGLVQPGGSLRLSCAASGFSLNSYGISWVRQAPGKGPEWVSVIYSDGRRTFYADSVKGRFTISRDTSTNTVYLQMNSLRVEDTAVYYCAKGRAAGTFDDWGQGTLVTVSS", "group": "Ctrl", "log10 Kd (nM) by replicate": "0.64 0.21 1.51 0.77 0.33 0.94", "empty controls": "1/18 (2.81)"}
{"VH": "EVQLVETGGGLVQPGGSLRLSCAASGFTLNSYGISWVRQAPGKGPEWVSVIYSDGRKTFYSDSVKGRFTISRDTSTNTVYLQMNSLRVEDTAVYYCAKGRAAGTFDSWGQGTLVTVSS", "group": "Ctrl", "log10 Kd (nM) by replicate": "1.12 nd nd nd nd nd", "empty controls": "0/18"}
{"VH": "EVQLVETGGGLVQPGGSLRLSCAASGQTLNSYGISWVRQAPGKGPEWVSVIYSDGRRTFYGDSVKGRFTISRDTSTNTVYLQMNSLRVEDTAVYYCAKGMAAGTFSIWGQGTLVTVSS", "group": "Ctrl", "log10 Kd (nM) by replicate": "nd nd nd nd nd nd", "empty controls": "0/18"}

Some sequences occur more than once in the pool; their replicates are listed entry by entry, parted by semicolons. As a blank, each scFv also met three strains without target: over all heavy chain designs, 1% of these pairings were detected, typically at 2.08 and seldom below 0.84. For each scFv, signals with the empty controls are counted beside the result, with their mean in brackets. The authors' rule: three or more of the six replicates give a measured affinity, fewer mean a poor binder. Values of this round are not directly comparable with the first-round values of the same sequences. Of ten entries with the parent sequence, four were seen in most replicates (averages 0.34 to 2.37), three in one and three in none, so single entries are noisy.